Values quoted from earlier work, collected in PMC7385036, “An allosteric pocket for inhibition of bacterial Enzyme I identified by NMR-based fragment screening” (Journal of Structural Biology: X, 2020).

Target: EIC
Conditions: read-out: equilibrium dissociation constant for the EIC interaction; ref Venditti et al., 2013; cited from earlier work

## α-ketoglutarate
  Kd: ~2 mM
